The source of these data is US8952036B2, “Benzoic acid derivative MDM2 inhibitor for the treatment of cancer” (Amgen Inc., priority 2013, dated 2015).

For this assay, the system named is SJSA-1 cells. The assay can be described thus: cells. Particulars: Homo sapiens, SJSA-1, 16 h, read-out: Cellular (SJSA-1) EdU assay IC50 (μM) 10% human serum.

Each structure is given as a SMILES string.

In general, IC50 refers to the concentration that gives 50% inhibition.

`CC(C)(C)S(=O)(=O)C[C@H](C1CC1)N1C(=O)[C@@](C)(CC(=O)O)C[C@H](c2cccc(Cl)c2)[C@H]1c1ccc(Cl)c(F)c1` [Example 4, 2-((3R,5R,6S)-1-((S)-2-(tert-Butylsulfonyl)-1-cyclopropylethyl)-6-(4-chloro-3-fluorophenyl)-5-(3-chlorophenyl)-3-methyl-2-oxopiperidin-3-yl)acetic acid]: the IC50 worked out at 0.0012 µM.
In the case of `COc1cc(NC(=O)C[C@@]2(C)C[C@H](c3cccc(Cl)c3)[C@@H](c3ccc(Cl)c(F)c3)N([C@H](CS(=O)(=O)C(C)(C)C)C3CC3)C2=O)ccc1C(=O)O` [Example 5, 4-(2-((3R,5R,6S)-1-((S)-2-(tert-Butylsulfonyl)-1-cyclopropylethyl)-6-(4-chloro-3-fluorophenyl)-5-(3-chlorophenyl)-3-methyl-2-oxopiperidin-3-yl)acetamido)-2-methoxybenzoic acid], the IC50 was found to be 0.0017 µM.
